# Literature values, collected in paper PMC10609940, “Systemic Dendrimer-Peptide Therapies for Wet Age-Related Macular Degeneration” (Pharmaceutics, 2023).
# System: CNV area
# Details: daily injections; cited from earlier work
# From the text: When systemically administered in vivo, differences in the distribution and bioavailability of D-ALG and free ALG-1001 peptide could be better elucidated. Fluorescently labeled D-ALG was detectable in the CNV area up to 4 days after intraperitoneal injection; on the other hand, free ALG-1001 signal was undetectable after day 2. The increased residence time at the target area allowed for less frequent injections for D-ALG.
substance,measurement,value
"CGRP peptides: calcitonin gene-related peptide (ref 77) (ACDTATCVTHRLAGLLSRSGGVVKNNFVPTNVGSKAF; Calcitonin gene-related peptide 1; UniProt P06881 83-119, looked up)",CNV area reduction,30%
